Source: PubChem BioAssay AID940 (Emory University Molecular Libraries Screening Center, 2007)
The list shows a part of the results, in another mix than the full data. Calls of active or inactive are those of the source.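 How the source made its calls: active means compounds whose cAMP rise, as percent of the full-agonist control response, exceeds 60; inactive means the rest.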

Chains of the proteins cited; added tags and fusions are not shown.
UniProt P43116, whole entry: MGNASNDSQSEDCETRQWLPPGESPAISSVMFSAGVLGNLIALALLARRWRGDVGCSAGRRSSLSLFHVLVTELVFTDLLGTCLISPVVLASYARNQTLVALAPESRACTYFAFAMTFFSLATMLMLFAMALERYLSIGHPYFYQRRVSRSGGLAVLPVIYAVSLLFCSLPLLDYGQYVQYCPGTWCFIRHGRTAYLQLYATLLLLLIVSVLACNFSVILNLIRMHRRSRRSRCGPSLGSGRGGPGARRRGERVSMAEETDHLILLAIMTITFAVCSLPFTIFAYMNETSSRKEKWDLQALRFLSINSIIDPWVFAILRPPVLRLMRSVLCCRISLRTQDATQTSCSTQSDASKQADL

These molecules were tested against Prostaglandin E2 receptor EP2 subtype (Homo sapiens) (UniProt P43116) (assay: modulation of human EP2 prostaglandin signaling – cell-based, HTRF cAMP, PGE2 stimulation, primary screen (AID 940;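 further: rat C6 glioma line stably carrying human EP2 under a CMV promoter; the protocol text gives 20 µM as final concentration; 100% = response of wells given 1 µM PGE2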)). Conditions: EP2-expressing cells, cAMP HTRF FRET, PGE2 co-stimulation; at 25 µM; stronger effect = higher value.

SMILES	induction
CN(CCCl)CCCl	inactive: 17.9%
